Source: PubChem (National Center for Advancing Translational Sciences (NCATS))
Most compounds without a hit are left out; they make up all but 2.2% or so of the library.
PI4K2A block: PI4K2A (human) kinase inhibition; activity change, negative = inhibition, % at 76.9 µM; 420,000 compounds, 0.13% hits; Q9BTU6; purified PI4K2A, ADP-Glo luminescence, 1 h; stronger effect = lower value; in the data active means activity change below about -50%; inconclusive means mostly about -30% to -49%;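 further: -100% = wells without enzyme as full effect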
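In this quantitative HTS, ADP production by PI4K2A was quantified luminescently after 1 h at ambient temperature; 100 microM adenosine served as plate-quality control.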
A549 tox: A549 cytotoxicity, counter-screen for Nrf2 inhibitors | A549 ARE-Fluc cells, CellTiter-Fluor viability, 18-24 h | Potency, µM (titrated, usually from 46 µM), inactives show at the highest dose activity change, negative = cytotoxicity, actives largely listed as inhibitors | 390,000 compounds, 0.16% hits | AID 504648; further: potency means the concentration at half of the fitted maximal effect; on the % scale 0 is the no-effect control and ±100 the full control effect
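A549 ARE_Fluc cells in 5% FBS OPTI-MEM were exposed to compounds in concentration-response for 18-24 h at 37 deg C. Viability was read by CellTiter-Fluor fluorescence (Ex 405/Em 525) after 30 min, before the luciferase read.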
Nrf2 ARE act: activates Nrf2 signaling; AREc32 ARE-luciferase reporter (MCF7-derived line), luminescence, 24 h; 410,000 compounds, 0.31% hits; Potency, µM (top dose mostly 46.1 µM), without a hit: top-dose activation, hits mostly activators; AID 624171; further: potency means the concentration at half of the fitted maximal effect; % of control where 0% means no effect; nearly all actives have a fitted effect of over 65% in size
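AREc32 cells carrying an ARE-driven firefly luciferase reporter were seeded at 1000 cells/well in OPTI-MEM with 5% FBS, then exposed to compound for 24 hr at 37 deg C. Luminescence was read with Steady-Glo after 30 min at RT.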
GALK inhibitor: blocks human galactokinase activity; Purified GALK, Kinase-Glo residual ATP luminescence; Potency, µM (highest dose often 57.5 µM), for inactives: top-dose activity change, negative = inhibition, usual class: inhibitors; 270,000 compounds, 0.007% hits; AID 1868; further: potency means the concentration at half of the fitted maximal effect; on the % scale 0 is the no-effect control and ±100 the full control effect
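Kinase-Glo Plus luminescence measured ATP left after a 1 h room-temperature reaction. The reaction used 5 nM GALK, 100 uM galactose and 35 uM ATP at pH 8.0 (20 mM HEPES, 5 mM MgCl2, 60 mM NaCl, 1 mM DTT, 0.01% BSA).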
miR-21 reporter: miR-21 reporter, rising signal | AID 2288 | HeLa miR-21 FLuc reporter, luciferase, 48 h | 340,000 tested, under 10 active | Potency, µM (doses to about 38.3 µM), for inactives: at the top dose reporter change, positive = more light; active = well fitted rising curve with a large enough effect; inconclusive = small, poorly fitted or top-dose-only effect; inactive = no such curve, though single readings can be large or run the other way;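 note: % of control where 0% means no effect; miR-21 action dims this reporter so a rising signal means less miR-21 action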
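Luminescence from a firefly luciferase reporter carrying a miR-21 binding site downstream, stably expressed under a CMV promoter in HeLa cells that make miR-21 endogenously, reports miRNA modulation after 48 h compound exposure up to approximately 40uM final.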
Nrf2 block: inhibitors of Nrf2 signaling | A549 ARE-Fluc reporter, luciferase luminescence, 18-24 h | Potency, µM (top dose mostly 46 µM), without a hit: top-dose activity change, negative = inhibition, most hits filed as inhibitors | 360,000 compounds, 2.1% hits; further: potency means the concentration at half of the fitted maximal effect; on the % scale 0 is the no-effect control and ±100 the full control effect; nearly all actives have a fitted effect of over 60% in size
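Quantitative HTS in A549 cells stably bearing an antioxidant response element-firefly luciferase construct. Inhibition of Nrf2-driven transcription was scored by luminescence after 18-24 h of compound exposure at 37 °C.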
* marks the source's active call; other numbers are inactive results; ? = inconclusive; nt = no result given. Unless noted, the call rests on the fitted dose curve; in most records, active means well fitted curve in the direction sought with a large enough effect; inconclusive means small, poorly fitted or top-dose-only effect, or another doubt; inactive means no such curve, though single readings can be large; an effect the other way counts as inactive or inconclusive.

(1) COC(=O)[C@]12C[C@H](CC(=O)NCc3cccs3)C(=O)N(Cc3ccco3)C1=C[C@H](C(C)(C)C)O[C@@H]2C
(2) O=C(Nc1ccccc1)c1ccc(S(=O)(=O)NCc2cccnc2)cc1
(3) O=C(Nc1ccc(S(=O)(=O)NCCc2ccccc2)cc1)c1ccncc1
(4) O=C(Nc1ccc(S(=O)(=O)NCc2cccnc2)cc1)c1ccccc1Cl
(5) O=C(Nc1ccc(S(=O)(=O)NCCc2ccccc2)cc1)c1ccco1
(6) O=C(NCc1cccnc1)c1ccc(NC(=O)c2cccc([N+](=O)[O-])c2)cc1

Screen / compound no.,1,2,3,4,5,6
PI4K2A block,-5,3,3,-3,4,1
A549 tox,nt,0%,-11%,0%,6%,4%
Nrf2 ARE act,nt,0%,-1%,0%,5%,1%
GALK inhibitor,nt,-2%,7%,0%,-1%,2%
miR-21 reporter,nt,20%,-5%,1%,-4%,23%
Nrf2 block,nt,13µM*,21µM*,?,-17%,4.6µM*

Pulled by compound from the entries so far:
(1) COC(=O)[C@]12C[C@H](CC(=O)NCc3cccs3)C(=O)N(Cc3ccco3)C1=C[C@H](C(C)(C)C)O[C@@H]2C
(3) O=C(Nc1ccc(S(=O)(=O)NCCc2ccccc2)cc1)c1ccncc1
(5) O=C(Nc1ccc(S(=O)(=O)NCCc2ccccc2)cc1)c1ccco1

Screen / compound no.,1,3,5
PI4K2A block,-5,3,4
A549 tox,nt,-11%,6%
Nrf2 ARE act,nt,-1%,5%
GALK inhibitor,nt,7%,-1%
miR-21 reporter,nt,-5%,-4%
Nrf2 block,nt,21µM*,-17%

Continuation.
(7) O=C(NCc1cccnc1)c1ccc([N+](=O)[O-])cc1
(8) c1ccc(C(O[C@H]2CCCN(CCc3ccc4c(c3)OCO4)C2)c2ccccc2)cc1
(9) CCc1cccc2c(C(=O)COC(=O)c3ccc([N+](=O)[O-])s3)c[nH]c12
(10) O=C(OCC(=O)c1c[nH]c2ccccc12)c1ccc([N+](=O)[O-])s1
(11) CC(C)=CC(O)C/C(C)=C/COc1ccc2ccc(=O)oc2c1 (stereo not drawn)
(12) Cn1c(=O)n(C)c2cc(N3CCCCC3)c(NC(=O)c3ccccc3)cc21

Screen / compound no.,7,8,9,10,11,12
PI4K2A block,1,-4,-1,0,4,3
A549 tox,1%,nt,21µM*,-8%,-29%,-2%
Nrf2 ARE act,0%,nt,19%,27%,-3%,0%
GALK inhibitor,7%,nt,-2%,3%,-2%,5%
miR-21 reporter,3%,nt,-2%,0%,-7%,0%
Nrf2 block,-6%,nt,?,-6%,10µM*,4%

A few values from the list.
For Nrf2 block, #10 has -6%
For PI4K2A block, #12 has 3

Continued.
(13) CCOc1ccccc1C(=O)Nc1cc2c(cc1N1CCCCC1)n(C)c(=O)n2C
(14) CC(C)CN1C(=O)[C@]2(CC(=O)N(C)C2c2ccccc2)c2cc(-n3cc(-c4ccccc4)nn3)ccc21 (stereo partly drawn)
(15) COc1ccc2nc(NC(=O)c3ccoc3C)sc2c1
(16) CC(=O)Nc1ccc(S(=O)(=O)N2CCN=C2SCc2cccc(C)c2)cc1
(17) CC(=O)Nc1ccc(S(=O)(=O)N2CCN=C2SCc2ccc([N+](=O)[O-])cc2)cc1
(18) COc1cc(F)c(S(=O)(=O)N2CCCN(S(=O)(=O)c3ccc(NC(C)=O)cc3)CC2)c(F)c1

Screen / compound no.,13,14,15,16,17,18
PI4K2A block,-1,-5,-85*,5,-4,nt
A549 tox,?,nt,2%,-10%,-2%,-5%
Nrf2 ARE act,4%,nt,4%,1%,7%,nt
GALK inhibitor,nt,nt,10%,2%,5%,nt
miR-21 reporter,?,nt,-20%,1%,17%,nt
Nrf2 block,23µM*,nt,?,?,8.2µM*,?

(19) Cc1ccc2c(Cl)cc(Cl)c(OCC(=O)Nc3cc(S(=O)(=O)N(C)C)ccc3C)c2n1
(20) Cc1ccc2c(Cl)cc(Cl)c(OCC(=O)Nc3cccc(S(=O)(=O)N(C)C)c3)c2n1
(21) Cc1ccc(CSC2=NS(=O)(=O)c3ccccc32)cc1
(22) C[n+]1ccc(/C=N/Nc2nc(Cl)c(C#N)c(Cl)c2Cl)cc1
(23) CSc1nsc(N/N=C/c2ccccc2)c1C#N
(24) CN(Cc1ccccc1)C(=O)OCc1cn(Cc2cc(F)ccc2F)nn1

Screen / compound no.,19,20,21,22,23,24
PI4K2A block,2,1,nt,-17,-6,1
A549 tox,-18%,-1%,0%,23%,-16%,nt
Nrf2 ARE act,3%,3%,nt,13µM*,7%,nt
GALK inhibitor,-3%,0%,nt,-6%,-1%,nt
miR-21 reporter,28%,0%,nt,13%,-29%,nt
Nrf2 block,15µM*,11%,-24%,-9%,-10%,nt

(25) CCOc1ccc(-c2cc(CCCC(=O)NCCc3cc(OC)c(OC)c(OC)c3)no2)cc1
(26) COc1ccc(-c2noc(CCCC(=O)NCCc3ccccc3)n2)cc1OC
(27) COc1ccc(-c2noc(CCCC(=O)NC3CCCCC3)n2)cc1
(28) COc1ccc(-c2noc(CCC(=O)NCCc3cccc(C)c3)n2)cc1
(29) COCCCN1C(=O)[C@H](CC(=O)NCc2ccccc2)[C@]2(C(=O)OC)CCCCC=C12
(30) COC(=O)c1cccc(N2C(=O)C[C@](Sc3ccc(OC)cc3)(C(=O)N3CCOCC3)[C@H]2c2ccc(OC)cc2)c1

Screen / compound no.,25,26,27,28,29,30
PI4K2A block,-1,3,-6,4,-5,-3
A549 tox,-4%,-3%,-20%,-9%,nt,nt
Nrf2 ARE act,-1%,-1%,-1%,-1%,nt,nt
GALK inhibitor,nt,0%,-1%,-1%,nt,nt
miR-21 reporter,?,-12%,16%,-8%,nt,nt
Nrf2 block,15µM*,23µM*,21µM*,23µM*,nt,nt

(31) C=C(c1ccccc1)c1ccc(N(C)C)cc1
(32) Cc1cc2nc(-c3cccnc3SCC(=O)NC(C)C)[nH]c2cc1C
(33) COCCOC(=O)CSc1ncccc1-c1nc2cc(C)c(C)cc2[nH]1
(34) COc1cc2c(cc1NC(=O)CN(C)Cc1ccc(OC)c(OC)c1)oc1ccccc12
(35) Fc1cccc(CNC2CCC23CCC(c2ccccc2)CC3)c1 (stereo not drawn)
(36) Cc1ccc(C(=O)NNc2ncnc3c2cnn3C)cc1

Screen / compound no.,31,32,33,34,35,36
PI4K2A block,1,-2,-3,-1,2,5
A549 tox,-3%,-5%,2%,-12%,nt,-7%
Nrf2 ARE act,3%,7%,3%,-1%,nt,-1%
GALK inhibitor,1%,12%,9%,2%,nt,1%
miR-21 reporter,-21%,-51%,-4%,26%,nt,-1%
Nrf2 block,16µM*,4%,15µM*,16µM*,nt,10%

(37) Cn1ncc2c(O/N=C(\N)c3ccc(C(F)(F)F)cc3)ncnc21
(38) C=Cc1ccc(Cn2c(C(=O)O)c(CNCc3cccs3)c3ccc(C)cc32)cc1
(39) Cc1ccc2c(CNCc3cccs3)c(C(=O)O)n(Cc3ccc(F)cc3)c2c1
(40) COc1ccc(Cn2c(C(=O)O)c(CNCc3ccc(OC)cc3OC)c3ccc(C)cc32)cc1
(41) CCOc1ccccc1CNCc1c(C(=O)O)n(Cc2ccc(F)cc2)c2cc(C)ccc12
(42) O=S(=O)(c1ccccc1)N1CCN(c2nccc(-c3cccs3)n2)CC1
(43) CN(C)CC(=O)N[C@@H]1C[C@@H]2O[C@@H](CO)CC[C@@H]2O[C@@H]1CCc1ccc(-c2ccc(F)cc2)cc1
(44) CC(C)c1cc(C(=O)N(C2CCCCC2)C2CCCCC2)no1
(45) O=C(O[C@H]1CC[C@@]23CCCN2C(=O)CCC[C@H]3C1)N1CCOCC1

Screen / compound no.,37,38,39,40,41,42,43,44,45
PI4K2A block,-3,3,5,-1,-22,nt,3,3,-5
A549 tox,?,15µM*,12µM*,13µM*,18µM*,4%,nt,nt,nt
Nrf2 ARE act,-4%,0%,4%,4%,0%,nt,nt,nt,nt
GALK inhibitor,nt,nt,nt,nt,nt,nt,nt,nt,nt
miR-21 reporter,?,21%,15%,0%,-7%,nt,nt,nt,nt
Nrf2 block,18µM*,-27%,-22%,?,?,-10%,nt,nt,nt
